Data taken from patent US11667656B2, “Crystalline forms of Tenofovir alafenamide” (Apotex Inc., priority 2021, dated 2023).

What was measured:
[1] = for Intrinsic Dissolution Rate: Wood apparatus, bath 37° C., 900 mL distilled water, 50 rpm, compressed 200-400 mg samples
Protocol: Intrinsic dissolution rate (IDR) measurements were performed using a Wood apparatus (Pharma Test PT-DT8 instrument) having a bath temperature of 37° C. Samples were prepared by compressing 200-400 mg samples at 1.5 metric tons for 1 minute. A dissolution medium consisting of 900 mL distilled water, and rotation speed of 50 rpm, was used for each experiment.

[2] = capped and uncapped samples, 40° C./75% RH, at least 3 months

Substance | Intrinsic Dissolution Rate [1] | intrinsic dissolution rate (IDR), comparison ([1]; compared to crystalline tenofovir alafenamide fumarate (1:1) or tenofovir alafenamide succinate (1:1)) | change in the crystalline form (PXRD) [2]
tenofovir alafenamide succinate fumarate [Tenofovir alafenamide succinate fumarate Form APO-III] | 1.14 mg min^−1 cm^−2 | – | –
tenofovir alafenamide succinate fumarate [Tenofovir alafenamide succinate fumarate Form APO-II] | 1.22 mg min^−1 cm^−2 | higher | no change in the crystalline form
tenofovir alafenamide succinate fumarate [Tenofovir alafenamide succinate fumarate Form APO-I] | 1.11 mg min^−1 cm^−2 | – | –
tenofovir alafenamide succinate malate | 1.39 mg min^−1 cm^−2 | – | –
